Source: patent US20200283491A1

Sequences of proteins named here, by UniProt entry; tags and fusion partners are left off. A change or cut given only in a name is not applied to a line headed by its entry.
UniProt P50391: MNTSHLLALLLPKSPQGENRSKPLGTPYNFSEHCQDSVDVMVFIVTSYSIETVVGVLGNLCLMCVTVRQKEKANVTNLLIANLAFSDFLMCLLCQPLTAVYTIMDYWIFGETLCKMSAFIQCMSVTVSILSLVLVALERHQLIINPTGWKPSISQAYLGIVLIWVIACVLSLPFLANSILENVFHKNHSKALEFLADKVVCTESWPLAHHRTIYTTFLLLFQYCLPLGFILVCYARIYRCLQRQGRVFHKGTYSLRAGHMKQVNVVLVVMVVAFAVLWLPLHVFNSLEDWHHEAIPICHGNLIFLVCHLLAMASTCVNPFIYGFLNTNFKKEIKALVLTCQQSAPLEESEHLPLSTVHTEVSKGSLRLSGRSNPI

Target: human Y4 receptor (human) (UniProt P50391)
Assay: cell-based or functional assay

Human isoform potency (EC50 nM), cAMP assay: 137 nM
Substance: PYY3-36 (from UniProt P10082 31-64) (peptide)
